From patent US20250353867A1, “Substituted Pyridine-2,6-Bis(Phenylenephenolate) Complexes with Enhanced Solubility that are Useful as Catalyst Components for Olefin Polymerization” (EXXONMOBIL CHEMICAL PATENTS INC., priority 2022, published 2025)

Experiment: Solubility of complexes in isohexane at room temperature
Assay type: physicochemical
Details: room temperature (20° C.-25° C.); for Solubility in isohexane: cocrystallized solvent included in formula weight; for Solubility in isohexane (wt %): cocrystallized solvent included in mass
Procedure: General considerations: Solubility studies were performed using complexes that were isolated as crystalline or microcrystalline solids. […] Complex 3, embodying the present technological advancement, was cocrystallized with 0.6 equivalents of isohexane. Complex 4, embodying the present technological advancement, was cocrystallized with 0.5 equivalents of isohexane. Solvents used were sparged with nitrogen (30-60 minutes) and dried over 3 angstrom molecular sieves. Unless stated otherwise all measurements were performed at ambient temperature (20° C.-25° C.).
General procedure: A tared vial was loaded with a small amount of the complex (actual mass recorded, typically 5-30 mg). Then a small stir bar (8 mm) was added. Solvent was then added and the mixture was stirred rapidly (1000 rpm). […] This process was repeated until either a clear solution was obtained (no visible solids or murkiness) or the vial was full. As the mixture approached homogeneity (i.e., few remaining solids observed) the volume of the solvent additions was kept small (<1 mL) to minimize the overshooting of the solvent required to achieve homogeneity. The stir bar was then removed and the mass of the mixture was measured. If a clear solution had formed then the solubility of the complex was calculated based on the mass of complex and the amount of solvent added to achieve a homogeneous solution. If the mixture remained heterogeneous (visible solids or murky), then the value reported is given as being “less than” the calculated value. Formulas used to calculate solubility are listed below. Cocrystallized solvent is included in the mass and formula weights of the complexes. The density of isohexane used in the calculations was 0.672 g/ml, and the density of the complex was assumed to be 1.0 g/ml.
Solubility (in wt %)=[100]*[(weight of complex)/(weight of solution)]
Solubility (in mM)=[10^6]*[(grams of complex)/(formula wt. of complex in g/mol)]/[(grams of solvent)/(density of solvent in g/mL)]

## dimethylzirconium[2′,2′″-(pyridine-2,6-diyl)bis(3-adamantan-1-yl)-5-(tert-butyl)-[1,1′-biphenyl]-2-olate)] [Complex 2, reference compound]
  Solubility in isohexane: 520 µM
  Solubility in isohexane (wt %): 0.081 wt %

## dimethylzirconium[2′,2′″-(pyridine-2,6-diyl)bis(3-adamantan-1-yl)-5-methyl-[1,1′-biphenyl]-2-olate)] [Complex 1, reference compound]
  Solubility in isohexane: <600 µM
  Solubility in isohexane (wt %): <0.08 wt %
